## scFv variants of Ab-91 (heavy chain) against a SARS-CoV-2 spike peptide

Binding partner: SARS-CoV-2 spike HR2 peptide, sequence PDVDLGDISGINAS.

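Variants in AAYL51 differ from the parent at up to three CDR positions; double and triple changes were sampled at random. The assay is AlphaSeq: two haploid yeast populations carry antibody and antigen on their surface. Binding brings cells together so that they mate, and sequencing counts the barcode pairs among the diploids. Each replicate has its own calibration line, from reference interactions of the BCL2 family. Each pool was mated in three replicate cultures.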

Parent scFv Ab-91: VL joined to VH by three GGGGS repeats. Changes lie in the heavy chain CDRs alone.
VL: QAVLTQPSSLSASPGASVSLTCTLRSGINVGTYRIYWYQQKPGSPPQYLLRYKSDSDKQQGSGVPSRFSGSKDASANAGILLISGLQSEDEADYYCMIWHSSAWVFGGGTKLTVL
VH: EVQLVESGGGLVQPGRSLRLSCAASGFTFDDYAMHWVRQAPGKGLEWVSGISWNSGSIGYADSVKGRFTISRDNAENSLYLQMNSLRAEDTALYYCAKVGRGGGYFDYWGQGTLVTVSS

Each variant is given by its three heavy chain CDRs, as the data file delimits them; those of the parent are GFTFDDYAMH, GISWNSGSIGYADSVK, VGRGGGYFDY. The read-out is the apparent dissociation constant on a log10 scale (nM): the lower, the stronger. The mean shown is taken over the replicates in which the pair was detected. A pair that was not seen in any replicate is written "nd"; this usually means weak binding, but a binder can also be missed. Order: sorted from the lowest average up, undetected variants last. Empty control strains, which show no peptide, gave a signal in 21% of pairings with library AAYL51; the median was 4.54 and 95% of these signals were weaker than 3.26. No background was subtracted.

CDR-H1	CDR-H2	CDR-H3	log10 Kd (nM), mean	replicates with signal
GFTTDDYAMH	GISWNSGSIGYADSVT	VGRGGGYNDY	0.92	3 of 3
GFTFDDYAMH	GMSWNGGSIGYADSVK	VGRGGGYFDA	1.40	3 of 3
GHTFDDYAMH	GISWNSGSIGTADSVK	VGRGGGYFDY	2.05	3 of 3
GFTFDDYAMH	GISWNVGVIGYADSVA	VGRGGGYFDY	2.79	3 of 3
GFQFDDYAMH	GISWNSLSPGYADSVK	VGRGGGYFDY	2.85	1 of 3
GFTFDDYAMH	GISWNSGSSGYAEGVK	VGRGGGYFDY	2.96	3 of 3
GFTFDDYAMH	GISWNSGQIGYGDSVK	VGRGGGYFGY	3.02	3 of 3
GFTFDDYGMH	GISWNSGSIGYADSVG	VGRGGGVFDY	3.10	2 of 3
GFTFDDKAMH	GISWNSLSIGYADSDK	VGRGGGYFDY	3.33	1 of 3
GFTFDDYAAH	GISWNSGSIGYADPVK	NGRGGGYFDY	3.44	1 of 3
RFTFDDYAMH	GISWNSGSIGYADSVL	VGRGGGWFDY	3.78	1 of 3
GFTFDDYAMH	GISWNSGAIGYADHVK	VGRLGGYFDY	3.87	1 of 3
GFTFEDYAMH	GIEWNSGSPGYADSVK	VGRGGGYFDY	3.94	1 of 3
GFTFDDEAMH	GISWNSGSIGYADSVY	VGRGGGYFDY	4.09	1 of 3
GFTFDDYAMH	GRSWNSGSYGYADSVK	VPRGGGYFDY	4.25	2 of 3
GFTFDDYAMH	GISHPSGSIGYTDSVK	VGRGGGYFDY	4.40	1 of 3
GFTFDDYAMH	GISWNSTSIKYADSVK	VGRGGGYFDA	4.69	3 of 3
GFTFDDYAMH	LISWNSGSIGYADNVK	VGSGGGYFDY	4.76	1 of 3
GFTFQDYAMH	GISWNSCSIGYADSVK	VGRGGGYFDA	4.97	3 of 3
GFTFDDYAMH	GISWNSGCIGYADSVK	VGWGGGDFDY	5.00	2 of 3
GFTFDDYAFH	GISWNSGSIGYAVSVK	VGRGGGFFDY	5.00	3 of 3
GNTCDDYAMH	GISWNSGSIGYADSVM	VGRGGGYFDY	5.01	2 of 3
GFTTDDYARH	GISWNSGSFGYADSVK	VGRGGGYFDY	5.04	2 of 3
GFTFDDYSMH	GISWNSGSIGYADSVK	SGRGGMYFDY	5.12	1 of 3
GFTFKDYACH	GISWNSGSIGYADSVK	VGRGGGYFLY	5.22	2 of 3
GFTWDDYQMH	IISWNSGSIGYADSVK	VGRGGGYFDY	5.51	1 of 3
GFTFDDYAMH	GISWVSGSIGNADSVK	VGRGGGGFDY	5.54	2 of 3
GFTFDDYAMM	GISWNSGSIGYIDSVK	VLRGGGYFDY	5.63	2 of 3
GLTFDDYAMH	GCSWNSGSIGYADSVK	VGRGGGYKDY	5.73	1 of 3
GFTFDDYAMH	GISWNTGSIFYADAVK	VGRGGGYFDY	5.74	2 of 3
GNTFDDYAMH	GISWNSGSIGYADSVK	VMRGGGYFDY	5.74	2 of 3
GDTFDDYAMH	GISVNSGPIGYADSVK	VGRGGGYFDY	5.92	2 of 3
GFTFDDYAMH	GISRNSGSIGYAHSVK	VGRGGGRFDY	5.93	1 of 3
GFTFDDYAVH	GISWMSGSIGYADSVK	SGRGGGYFDY	nd	0 of 3
GFTFDEYAMH	GSSWNSGSIGYADSVK	VGRGGGWFDY	nd	0 of 3
GFTFDDYCMH	GISWNSGEIGYWDSVK	VGRGGGYFDY	nd	0 of 3
GFTFDDYAMH	FISWNSMSIGYADSVK	VGRGGGYFDM	nd	0 of 3
FFTFDDKAMH	GISWNSGSGGYADSVK	VGRGGGYFDY	nd	0 of 3
GFTFDDYAMH	IISWASGSIWYADSVK	VGRGGGYFDY	nd	0 of 3
GSTFADYAMH	GISWNSGSIGWADSVK	VGRGGGYFDY	nd	0 of 3
GFTFDDYEMH	GISWNSGSIGYADSGK	VGRGGDYFDY	nd	0 of 3
GFTFADYAMH	GWSWNSGSIGYAISVK	VGRGGGYFDY	nd	0 of 3
GFTFDDYVMH	GGSWNSGSIGYADSVF	VGRGGGYFDY	nd	0 of 3
GFTFDDYAMH	GISGASGSIGYADSVK	VPRGGGYFDY	nd	0 of 3
AFTFDDYAMH	GISWNSGSIAYACSVK	VGRGGGYFDY	nd	0 of 3
GFTFDDYAMH	GDSWNPGSIGYADKVK	VGRGGGYFDY	nd	0 of 3
GFTFWDYAMH	GISWNSGSIGYADSVK	VGRGGGHFDY	nd	0 of 3
GFTFDDYAMH	GTSWNSGSIGYCDSVK	VGRGGGYFDY	nd	0 of 3
GFTFDDYQMH	GISWNYGSIGYADSVK	VGRGGGRFDY	nd	0 of 3
GFTFDDYAMH	GISWKSGSIGYAVSVK	VGRGGGHFDY	nd	0 of 3
GFTFDDYAMH	GISWNSGSIGYADSWN	HGRGGGYFDY	nd	0 of 3
GFTFDDYAMH	GISWNSGAIGYADSVK	VFRGGGYFDE	nd	0 of 3
GFTFDDYAMH	GISWNSGSIGYAMFIK	VGRGGGYFDY	nd	0 of 3
GFTFDDYAMH	PISWNSGSIGYADSVK	VDRGGGYFDY	nd	0 of 3
GFTFDDYAPH	GISWNSGSIGYADSSK	VGRGGGGFDY	nd	0 of 3
GFTFDEYAMH	GISWNSGSIGYADTVK	VGSGGGYFDY	nd	0 of 3

The opening 8 entries, copied out:

| CDR-H1 | CDR-H2 | CDR-H3 | log10 Kd (nM), mean | replicates with signal |
|---|---|---|---|---|
| GFTTDDYAMH | GISWNSGSIGYADSVT | VGRGGGYNDY | 0.92 | 3 of 3 |
| GFTFDDYAMH | GMSWNGGSIGYADSVK | VGRGGGYFDA | 1.40 | 3 of 3 |
| GHTFDDYAMH | GISWNSGSIGTADSVK | VGRGGGYFDY | 2.05 | 3 of 3 |
| GFTFDDYAMH | GISWNVGVIGYADSVA | VGRGGGYFDY | 2.79 | 3 of 3 |
| GFQFDDYAMH | GISWNSLSPGYADSVK | VGRGGGYFDY | 2.85 | 1 of 3 |
| GFTFDDYAMH | GISWNSGSSGYAEGVK | VGRGGGYFDY | 2.96 | 3 of 3 |
| GFTFDDYAMH | GISWNSGQIGYGDSVK | VGRGGGYFGY | 3.02 | 3 of 3 |
| GFTFDDYGMH | GISWNSGSIGYADSVG | VGRGGGVFDY | 3.10 | 2 of 3 |

Data: MIT Lincoln Laboratory AlphaSeq set, Engelhart et al. 2022, doi:10.1038/s41597-022-01779-4, as distributed in FLAb.